Several values for one entry are separate records, joined by “and”; a condition that tells them apart may be missing. Identical values can stand only once.
Columns and labels:
[1] = Single-dose I.V. and I.P. PK in male SD rats; settings: for systemic exposure across species (in words): I.V. administration, rats vs mice or dogs; for Cmax and AUC, I.V. versus IP (in words) / T1/2, I.V. versus I.P. (in words): compound of Formula (II) 5.9 mg/kg I.V. or I.P.
[2] = tested on: NCI-H460-luc2 human intracranial cells; test: Survival in intracranial NCI-H460-luc2 model (brain cancer efficacy); settings: for Increase Life Span (%): vs vehicle
[3] = Single-dose I.P. PK in CD-1 mice; settings: for system exposure versus dose (in words): compound of Formula (II) I.P. from 5.9 to 23.8 mg/kg
[4] = Plasma stability in different species, overall statement
I.V. PK in Balb/c mice = settings: compound of Formula (II) 2.7 mg/kg IV
[5] = Single-dose I.V. and I.P. PK in Beagle dogs
[6] = Drug distribution in tissues after third i.p. or i.v. dose of compound of Formula (II); settings: for Concentration in brain / Concentration in heart / Concentration in kidney / Concentration in liver / Concentration in lung / Concentration in plasma: 2 h after third dose, QW × 3
[7] = compound of Formula (II) dosed 5.9 mg/kg I.V., mean
[8] = compound of Formula (II) dosed 5.9 mg/kg I.P., mean
[9] = compound of Formula (II) dosed 23.8 mg/kg I.P., mean
[10] = paclitaxel dosed 10 mg/kg I.P., mean
[11] = Table 2-7, compound of Formula (II) 5.9 mg/kg IP, rat
[12] = compound of Formula (II) 6 mg/kg IV, rat
[13] = compound of Formula (II) 6 mg/kg IV, dog
[14] = compound of Formula (II) dosed 1 mg/kg I.V.
[15] = compound of Formula (II) dosed 3 mg/kg I.P.
[16] = compound of Formula (II) dosed 2.7 mg/kg i.v.
[17] = compound of Formula (II) dosed 5.9 mg/kg i.p.
[18] = Table 2-7, compound of Formula (II) 5.9 mg/kg IP, mice

## CC(=O)O[C@H]1C(=O)[C@@]2(C)[C@H]([C@H](OC(=O)c3ccccc3)[C@]3(O)C[C@H](OC(=O)[C@H](O)[C@@H](NC(=O)c4ccccc4)c4ccccc4)C(C)=C1C3(C)C)[C@]1(OC(C)=O)CO[C@@H]1C[C@@H]2O
[1]
  systemic exposure across species (in words): observed in rats compared to mice or dogs
  Cmax and AUC, I.V. versus IP (in words): so did its metabolite Paclitaxel
  T1/2, I.V. versus I.P. (in words): so did its metabolite Paclitaxel
[1]; [7]
  C0: 244 nM
[2]; 10 mg/kg, ± SEM
  Median Survival Time (MST): 10 days and 10 ± 1 days
[3]; I.P. administration, mice vs rats or dogs
  systemic exposure and release of paclitaxel across species (in words): higher in mice than rats or dogs
[3]
  system exposure versus dose (in words): increased less than dose proportionally as dose levels increased
[3]; [8]
  AUMC0-inf: 39776.15 h*h*nmol/L
  AUMC0-t: 19837.331 h*h*nmol/L
  Cl_F_obs: 52.3 mL/min/kg
  Kel: 0.068 h⁻¹
  MRTlast: 696.12 min
  Vz_Fo_bs: 62.063 L/kg
[3]; [9]
  AUMC0-inf: 109886.96 h*h*nmol/L
  AUMC0-t: 72372.302 h*h*nmol/L
  Cl_F_obs: 64.98 mL/min/kg
  Kel: 0.037 h⁻¹
  MRTlast: 1070.2 min
  Vz_Fo_bs: 125.043 L/kg
[3]; [10]
  AUMC0-inf: 12720.824 h*h*nmol/L
  AUMC0-t: 5845.93 h*h*nmol/L
  Cl_F_obs: 81.93 mL/min/kg
  Kel: 0.312 h⁻¹
  MRTlast: 183.8 min
  Vz_Fo_bs: 16.901 L/kg

## CC(=O)N[C@@H](CSSCCCC(=O)O[C@@H](C(=O)O[C@H]1C[C@@]2(O)[C@@H](OC(=O)c3ccccc3)[C@@H]3[C@]4(OC(C)=O)CO[C@@H]4C[C@H](O)[C@@]3(C)C(=O)[C@H](OC(C)=O)C(=C1C)C2(C)C)[C@@H](NC(=O)c1ccccc1)c1ccccc1)C(=O)N[C@H](CCCNC(=N)N)C(=O)N[C@H](CCCNC(=N)N)C(=O)N[C@H](CCCNC(=N)N)C(=O)N[C@H](CCCNC(=N)N)C(=O)N[C@H](CCCNC(=N)N)C(=O)N[C@H](CCCNC(=N)N)C(=O)N[C@H](CCCNC(=N)N)C(=O)N[C@H](CCCNC(=N)N)C(N)=O
[4]
  half-life in plasma, comparison with Compound 5 (in words): longer half-life in plasma in different species
I.V. PK in Balb/c mice
  AUC0-t: 0.639 µM·h
  AUC0-∞: 0.678 µM·h
  Cmax: 2320 nM
  Tmax: 3 min
  t1/2: 17.3 min
[1]
  systemic exposure across species (in words): observed in rats compared to mice or dogs
  Cmax and AUC, I.V. versus IP (in words): by I.V. administration was much higher than IP administration
  T1/2, I.V. versus I.P. (in words): by I.V. administration was much longer than I.P. administration
[1]; [11]
  AUC0-t: 0.276 µM·h
  AUC0-∞: 0.294 µM·h
  Tmax: 23.3 min
[1]; [12]
  AUC0-t: 3.293 µM·h
  AUC0-∞: 3.356 µM·h
  Cmax: 10737 nM
  Tmax: 30 min
  t1/2: 24.9 min
[1]; compound of Formula (II) dosed 5.9 mg/kg I.P.
  F: 9.1%
[1]; [8]
  AUC0-inf: 0.294 µM·h
  AUC0-t: 0.276 µM·h
  AUC Extr: 6.3%
  Cmax: 398.5 nM
  MRT: 151 min
  T1/2: 124 min
  Tmax: 23.3 min
[1]; [7]
  AUC0-inf: 3.205 µM·h
  AUC0-t: 3.139 µM·h
  AUC Extr: 2%
  C0: 3485.126 nM
  CL: 49.96 mL/min/kg
  MRT: 107 min
  VSS: 7.37 L/kg
  VZ: 28.13 L/kg
[5]; [13]
  AUC0-t: 6.26 µM·h
  AUC0-∞: 6.34 µM·h
  Cmax: 4340 nM
  Tmax: 33 min
  t1/2: 80.4 min
[5]; [14]
  AUC0-t: 0.68 µM·h
  AUC0-∞: 0.681 µM·h
  Cmax: 819 nM
  Tmax: 3 min
  t1/2: 27.6 min
[5]; [15]
  AUC0-t: 0.622 µM·h
  AUC0-∞: 0.625 µM·h
  Cmax: 348 nM
  F % (bioavailability): 30.5%
  Tmax: 11.6 min
  t1/2: 47.4 min
[5]; compound of Formula (II) dosed I.V. and I.P.
  systemic exposure I.V. versus I.P. after dose normalization (in words): by I.V. administration was much higher than I.P. administration
[2]; 9.6 mg/kg
  Median Survival Time (MST): 14 days
  Increase Life Span (%): 0.00%
[2]; 19.2 mg/kg, ± SEM
  Median Survival Time (MST): 10 ± 2 days
[2]; 38.4 mg/kg group
  survivors at the end point: one mouse in Compound of Formula (II) 38.4 mg/kg group was still alive
[2]; 38.4 mg/kg
  Increase Life Span (%): 0.00%
[2]; 38.4 mg/kg, ± SEM
  Median Survival Time (MST): 14 days and 14 ± 1 days
[6]; 2 h after third dose of compound of Formula (II)
  brain to plasma ratio (B/P ratio): about 8
[6]; [16]
  Concentration in brain: BLQ
  Concentration in heart: 163 ng/g
  Concentration in kidney: 1704 ng/g
  Concentration in liver: 13260 ng/g
  Concentration in lung: 224 ng/g
  Concentration in plasma: BLQ
[6]; [17]
  Concentration in brain: 85.2 ng/g
  Concentration in heart: BLQ
  Concentration in kidney: 846 ng/g
  Concentration in liver: 1992 ng/g
  Concentration in lung: 317 ng/g
  Concentration in plasma: 10.7 ng/g
[6]; 2 hr after third I.P. or I.V. administration of compound of Formula (II)
  tissue distribution (in words): the highest tissue exposure was observed in liver, and the exposure in liver via I.V. administration at lower dose was much higher than I.P. administration
[3]; [18]
  AUC0-t: 0.00865 µM·h
  AUC0-∞: 0.01289 µM·h
  Cmax: 11.87 nM
  Tmax: 15 min
  t1/2: 44.5 min
[3]
  system exposure versus dose (in words): increased more than dose proportionally as dose levels increased
[3]; [8]
  AUC0-inf: 0.012888 µM·h
  AUC0-t: 0.008651 µM·h
  AUMC0-inf: 18.041 h*h*nmol/L
  AUMC0-t: 6.145 h*h*nmol/L
  Cl_F_obs: 5409.3 mL/min/kg
  Cmax: 11.872 nM
  Kel: 1.095 h⁻¹
  MRTlast: 41.7 min
  T1/2: 43.3 min
  Vz_Fo_bs: 317.1 L/kg
[3]; [9]
  AUC0-inf: 0.054595 µM·h
  AUC0-t: 0.050585 µM·h
  AUMC0-inf: 37.382 h*h*nmol/L
  AUMC0-t: 26.304 h*h*nmol/L
  Cl_F_obs: 5565.32 mL/min/kg
  Cmax: 88.576 nM
  Kel: 1.323 h⁻¹
  MRTlast: 31.9 min
  T1/2: 31.8 min
  Vz_Fo_bs: 261.409 L/kg

Reference: patent US20260382736A1, “TAXOL CONJUGATE COMPOUNDS, COMPOSITIONS AND METHODS FOR THEIR USE” (published 2026)
